The chains behind the UniProt entries cited, without tags or fusion partners. Where a name states a change or a piece, a line headed by the entry shows the natural chain unless it says otherwise.
UniProt Q9NYY3: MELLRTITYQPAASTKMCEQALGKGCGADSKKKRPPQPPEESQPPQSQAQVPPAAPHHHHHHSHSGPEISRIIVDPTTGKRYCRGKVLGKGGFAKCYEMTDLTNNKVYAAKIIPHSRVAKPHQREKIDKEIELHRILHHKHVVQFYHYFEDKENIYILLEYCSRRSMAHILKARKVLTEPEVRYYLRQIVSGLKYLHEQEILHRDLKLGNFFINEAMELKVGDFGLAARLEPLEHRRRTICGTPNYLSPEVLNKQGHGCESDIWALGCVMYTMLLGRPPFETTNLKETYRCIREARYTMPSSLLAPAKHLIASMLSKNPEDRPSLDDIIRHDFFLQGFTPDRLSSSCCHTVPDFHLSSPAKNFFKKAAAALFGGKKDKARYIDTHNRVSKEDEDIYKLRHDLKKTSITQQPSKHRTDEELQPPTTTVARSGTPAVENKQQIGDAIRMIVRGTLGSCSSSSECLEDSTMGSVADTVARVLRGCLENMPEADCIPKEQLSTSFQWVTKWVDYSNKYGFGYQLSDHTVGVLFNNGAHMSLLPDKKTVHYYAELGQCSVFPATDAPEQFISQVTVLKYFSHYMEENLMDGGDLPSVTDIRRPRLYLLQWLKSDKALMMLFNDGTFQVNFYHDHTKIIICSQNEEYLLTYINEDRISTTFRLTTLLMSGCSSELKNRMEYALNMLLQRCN
UniProt Q9H4B4: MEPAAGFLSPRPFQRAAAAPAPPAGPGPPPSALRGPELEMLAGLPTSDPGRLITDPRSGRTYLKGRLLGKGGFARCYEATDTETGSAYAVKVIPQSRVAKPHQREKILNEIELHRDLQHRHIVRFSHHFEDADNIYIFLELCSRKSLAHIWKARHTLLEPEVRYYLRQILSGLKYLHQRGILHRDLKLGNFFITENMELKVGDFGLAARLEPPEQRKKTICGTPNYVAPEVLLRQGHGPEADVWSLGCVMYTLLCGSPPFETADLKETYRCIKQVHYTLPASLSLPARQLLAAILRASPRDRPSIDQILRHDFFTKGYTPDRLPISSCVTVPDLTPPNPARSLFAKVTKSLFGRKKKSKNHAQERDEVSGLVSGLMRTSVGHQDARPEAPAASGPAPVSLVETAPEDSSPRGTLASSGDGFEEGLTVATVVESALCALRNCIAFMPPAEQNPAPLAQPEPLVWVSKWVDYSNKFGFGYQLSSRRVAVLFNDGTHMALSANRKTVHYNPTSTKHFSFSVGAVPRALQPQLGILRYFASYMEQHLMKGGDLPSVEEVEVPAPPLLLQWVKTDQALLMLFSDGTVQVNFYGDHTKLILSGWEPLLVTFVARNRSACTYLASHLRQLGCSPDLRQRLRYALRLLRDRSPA

According to patent publication US8148089B2, “Alpha-synuclein kinase” (Elan Pharma International Limited, priority 2006, dated 2012):

Legend:
PLK2 = PLK2 (Homo sapiens, UniProt Q9NYY3); assay: Straight biochemical assay: PLK2-driven synuclein phosphorylation in vitro; conditions: Table 19
[1] = target: T1, over-expressed PLK3 (293) (Homo sapiens, UniProt Q9H4B4); assay: Synuclein phosphorylation in HEK-293 cells over-expressing synuclein and PLK3; format: cell-based; conditions: Table 22
T1 construct: expressed in transfected cells; host or cells: HEK-293 naive cells, CMV-promoter expression vector

[2] = target: T2, over-expressed PLK2 (293) (Homo sapiens, UniProt Q9NYY3); assay: Synuclein phosphorylation in HEK-293 cells over-expressing synuclein and PLK2; format: cell-based
T2 construct: expressed in transfected cells; host or cells: HEK-293 naive cells, CMV-promoter expression vector, Lipofectamine 2000

CC[C@@H]1C(=O)N(C)c2cnc(Nc3ccc(C(=O)NC4CCN(C)CC4)cc3OC)nc2N1C1CCCC1 [ELN-481574-2, 4-[[(7r)-8-cyclopentyl-7-ethyl-5,6,7,8-tetrahydro-5-methyl-6-oxo-2-pteridinyl]amino]-3-methoxy-n-(1-methyl-4-piperidinyl)-benzamide]
1: Rank order of potency, Straight Biochemical (PLK2) | Rank order of potency, Synuclein + PLK3 [1] | Rank order of potency, Over-Expressed PLK2 (293) ([2]; Table 19) | Rank order of potency, Synuclein + PLK2 ([2]; Table 22)
